Read-outs that look alike come from different tables or passages of the source.
Experiment: pKa (Table 1 physiochemical properties)
Description: In one embodiment, a small molecule drug formulation includes a small molecule psychotherapeutic drug, such as a small molecule antipsychotic, dopamine receptor agonist, dopamine receptor antagonist, serotonin receptor agonist, serotonin receptor antagonist, and serotonin uptake inhibitor drug. […] R209130-base has the molecular formula C19H20FNO. R209130-mandelic acid salt (R209130) has the molecular formula C19H20FNO.C8H8O3. R209130-tartaric acid salt (R167154) has the molecular formula C19H20FNO.C4H6O6.

With `Cc1nc2n(c(=O)c1CCN1CCC(c3noc4cc(F)ccc34)CC1)CCCC2` [Risperidone pamoate, Risperidone-pamoate] the pKa was 8.2 and the pKa (second printed value (after slash)) was 3.1.

— patent US9597402B2, “Sustained release small molecule drug formulation” (DURECT CORPORATION, priority 2005, dated 2017)
